Assay [1] deals with Kappa-type opioid receptor (Homo sapiens) (UniProt P41145). As to the kind of experiment: Agonist activity at human KOR expressed in CHO cells assessed as induction of beta-arrestin-2 recruitment by enzyme fragment complementation assay relative to U69,593.
The target is the same in assay [2]. As to the kind of experiment: Agonist activity at human KOR expressed in CHO cells assessed as inhibition of forskolin-stimulated cAMP accumulation after 30 mins by HTRF assay relative to U69,593.

Protein sequences, listed by entry. Tags and fused reporters are not part of them. Lines headed by an entry give the natural chain unless they say otherwise; changes in a name come on top.
UniProt P41145: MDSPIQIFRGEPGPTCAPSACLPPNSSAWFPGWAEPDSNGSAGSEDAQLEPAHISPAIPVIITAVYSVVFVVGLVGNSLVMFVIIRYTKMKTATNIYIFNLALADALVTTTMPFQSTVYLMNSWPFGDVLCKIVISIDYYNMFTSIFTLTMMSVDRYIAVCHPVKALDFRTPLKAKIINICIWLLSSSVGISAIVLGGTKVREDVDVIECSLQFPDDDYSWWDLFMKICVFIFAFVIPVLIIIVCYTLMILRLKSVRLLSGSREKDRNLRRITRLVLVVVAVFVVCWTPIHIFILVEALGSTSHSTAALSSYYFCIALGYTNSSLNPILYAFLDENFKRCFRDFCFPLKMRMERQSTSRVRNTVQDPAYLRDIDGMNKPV

SMILES strings stand for the structures.

Regarding `COC(=O)[C@@H]1C[C@H](OC(C)=O)C(=O)[C@@H]2[C@H]3C[C@@H](c4ccoc4)CC(=O)[C@@H]3CC[C@]21C`, the maximal effect (Emax) in assay [1] is 87%; in assay [2] it was 109%.
